Earlier results, collected in patent US9700872B1, “Superpolar chromatographic stationary phases and extraction sorbents and their methods of synthesis” (THE FLORIDA INTERNATIONAL UNIVERSITY BOARD OF TRUSTEES, priority 2016, dated 2017).

Details: octanol/water; Top 100 EPA Priority Pollutants (Table 2)

Row | SMILES | Log Kow
1 | Cc1ccc([N+](=O)[O-])cc1[N+](=O)[O-] | 2
2 | Cc1c([N+](=O)[O-])cccc1[N+](=O)[O-] | 2.1

Only a part of the results on these compounds is given; other tests are left out.
